Earlier results on 1 molecule are cited in patent publication US20240000899A1, “THERAPEUTIC USEFUL AGAINST ANTIMICROBIAL RESISTANT AGENTS” (priority 2022, published 2024).

The conditions of this data set: deep lung, Dahl 1983; cited from earlier work.

Take `O=S(=O)(O)O` [sulfuric acid]: the “time in which the acid anion is absorbed” value is 2 to 3 min.
